Source: PubChem (National Center for Advancing Translational Sciences (NCATS))
miR-21 FLuc: miR-21 reporter, rising signal; Potency, µM (doses to about 38.3 µM); HeLa miR-21 FLuc reporter, luciferase, 48 h; 340,000 tested, under 10 active; active = well fitted rising curve with a large enough effect; inconclusive = small, poorly fitted or top-dose-only effect; inactive = no such curve, though single readings can be large or run the other way;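 further: miR-21 action dims this reporter so a rising signal means less miR-21 action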
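Using DMEM plus 10% FBS, HeLa miR-21-FLuc cells are incubated with test compounds (final up to about 40uM) for 48 hours; firefly luciferase signal is then imaged following reagent-mediated lysis.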
GALK inhibitor: inhibitors of human galactokinase | Purified GALK, Kinase-Glo residual ATP luminescence | AID 1868 | P51570 | 270,000 tested, 0.007% active | Potency, µM (titrated, usually from 57.5 µM), most hits filed as inhibitors
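Quantitative HTS: GALK 5 nM, ATP 35 uM, galactose 100 uM, 1 h room temperature, then luciferase-based ATP detection.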
RXFP1 antag: RXFP1 (human) relaxin receptor antagonism; Q9HBX9; HEK293-RXFP1, relaxin-stimulated cAMP HTRF, 30 min; hits give low values; activity change, negative = inhibition, % at 57.5 µM; 350,000 tested, 0.59% active;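 active = activity change of -60% or lower, but not beyond a set lower limit; inconclusive = change between -60% and -40%, or beyond the set limit; inactive = change above -40%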
RXFP1 ag: RXFP1 (human) receptor agonism; HEK293T-RXFP1 cAMP TR-FRET, 30 min; response scale: percent of porcine relaxin response, buffer zero; Potency, µM (titrated, usually from 57.5 µM), hits mostly activators; 370,000 tested, 0.3% active; AID 2676; also: nearly all actives have a fitted effect of over 60% in size
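HEK293 cells stably expressing RXFP1, treated 30 min at 37C with compounds plus PDE4 inhibitor Ro 20174; cAMP measured by HTRF TR-FRET. Normalized to buffer and 29 nM porcine relaxin; EC50 by Hill fit.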
PKM2 activator: PKM2 (human) enzyme activation. 260,000 tested, 0.34% active. Potency, µM (series often up to 57.5 µM), actives largely listed as activators. purified PKM2, Kinase-Glo ATP luminescence, activation; response scale: 0% is enzyme alone, no compound. P14618. AID 1631; also: nearly all actives have a fitted effect of over 55% in size
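hPK-M2, >95% pure; 0.1 mM ADP / 0.5 mM PEP final; imidazole pH7.2 buffer w/ 7 mM MgCl2, 50 mM KCl; 1 h RT; Kinase-Glo lum. Intermediate enzyme activity for dual inhibitor/activator qHTS.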
KinaseGlo FLuc: Kinase-Glo luciferase inhibition (counter-screen). Q27757. Potency, µM (doses to about 38.3 µM), actives largely listed as inhibitors. 200,000 tested, 0.28% active. Kinase-Glo luciferase, ATP luminescence, 8 min; also: nearly all actives have a fitted effect of over 60% in size
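Compound is pinned into ATP-containing buffer (10 uM ATP, imidazole pH 7.2, 7 mM MgCl2). Kinase-Glo luciferase reagent is then added. Light output is recorded following an 8-min room-temperature incubation.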
Of the large screens only hits and unclear results are named; the others gave an inactive call. Most compounds without a hit are left out; they make up all but 0.92% or so of the library. Unless noted, calls follow the shape of the dose curve; as a rule, active = well fitted curve in the direction sought with a large enough effect; inconclusive = small, poorly fitted or top-dose-only effect, or another doubt; inactive = no such curve, though single readings can be large; an effect the other way counts as inactive or inconclusive.

CCCCn1c(SCC(=O)c2ccc(OCC)cc2)nc2cc(S(N)(=O)=O)ccc21	none
CCC/C=N/Nc1nc2ccccc2s1	RXFP1 antag -90.8
Cc1nc(Nc2cc(F)ccc2C)c2nnn(Cc3ccccc3)c2n1	none (no result: KinaseGlo FLuc)
CCCOc1ccccc1Cn1c(=O)sc2ccccc21	RXFP1 antag -62.2 (no result: GALK inhibitor, PKM2 activator, KinaseGlo FLuc)
CCCOc1ccc(Cn2c(=O)sc3ccccc32)cc1	none (no result: GALK inhibitor, PKM2 activator, KinaseGlo FLuc)
CCOc1cc(/C=N/Nc2cccc(C(=O)O)c2)ccc1OC(=O)c1ccccc1	RXFP1 antag -75.0
CCOc1cc(/C=N/NC(=O)c2ccccn2)ccc1OC(=O)c1ccc(F)cc1	RXFP1 antag -93.3 (no result: KinaseGlo FLuc)
COc1cc(C=NNc2ccccc2)ccc1OC(=O)c1ccccc1	none (no result: miR-21 FLuc, GALK inhibitor, RXFP1 ag, PKM2 activator, KinaseGlo FLuc)
COc1cc(OC)nc(O[C@H](C(=O)O)C(OC)(c2ccccc2)c2ccccc2)n1	none (no result: miR-21 FLuc, GALK inhibitor, RXFP1 ag, PKM2 activator, KinaseGlo FLuc)
CC[N+](CC)(CC)CC(=O)Nc1ccc(SC(F)F)cc1	none
Cc1ccc(C(=O)Nc2ccc(SC(F)F)cc2)s1	RXFP1 antag -73.4
c1ccc(CNc2nc3ccccc3c3nc(-c4ccccc4)nn23)cc1	none (no result: GALK inhibitor, RXFP1 antag, PKM2 activator, KinaseGlo FLuc)
O=S(=O)(c1ccccc1)N1CCC(c2ccncc2)CC1	RXFP1 antag -105.7 (no result: GALK inhibitor, PKM2 activator, KinaseGlo FLuc)
O=S(=O)(c1ccc(Cl)cc1)N1CCC(c2ccncc2)CC1	none (no result: GALK inhibitor, PKM2 activator, KinaseGlo FLuc)
CN(C)c1ccc(/C=C(\C#N)C(=O)c2ccccc2)cc1	none (no result: GALK inhibitor, KinaseGlo FLuc)
N#C/C(=C\c1ccc(C#N)cc1)C(=O)c1ccccc1	PKM2 activator 22.4µM (no result: KinaseGlo FLuc)
CCC(C)(C)C(=O)O[C@@H]1C[C@@H](C)C=C2C=C[C@H](C)[C@H](CC[C@@H]3C[C@@H](O)CC(=O)O3)[C@H]21	none (no result: miR-21 FLuc, GALK inhibitor, RXFP1 antag, RXFP1 ag, PKM2 activator)
Cc1ccc(NC(=O)CSc2ncn(-c3ccccc3)n2)cc1C	none
COc1ccc(NC(=O)CSc2ncn(-c3ccccc3)n2)cc1Cl	PKM2 activator 14.1µM
O=S(=O)(O)C(c1ccccc1)[C@@H](O)c1ccccc1 (stereo partly drawn)	none (no result: miR-21 FLuc, GALK inhibitor, RXFP1 antag, RXFP1 ag, PKM2 activator)
Cc1c(C(=O)NNc2cc(=O)n(C)c(=O)n2C)cccc1[N+](=O)[O-]	RXFP1 ag 14.1µM (no result: KinaseGlo FLuc)
CCC(CC)NC(=O)c1cccc([N+](=O)[O-])c1C	none
CC(=O)c1sc(N/N=C\c2c(O)ccc3ccccc23)nc1C	RXFP1 antag -82.2 (no result: miR-21 FLuc, GALK inhibitor, RXFP1 ag, PKM2 activator, KinaseGlo FLuc)
Cc1ccc(-n2[nH]c(C)c(C=Nc3cc(C)ccn3)c2=O)cc1	none
COc1ccc2nc(/N=C/c3c(C)[nH]n(-c4ccc(C)cc4)c3=O)sc2c1	KinaseGlo FLuc 10µM
COC(=O)C/C=C/[C@@H](C)[C@H](NC(=O)OCC(Cl)(Cl)Cl)c1cccc(OC)c1	none (no result: miR-21 FLuc, GALK inhibitor, RXFP1 antag, RXFP1 ag, PKM2 activator)
CCOC(=O)/C(C#N)=C/c1cc2ccccc2nc1N1CCCCC1	RXFP1 ag 14.1µM
Cc1ccc2cc(/C=C(\C#N)C(N)=O)c(N3CCCCC3)nc2c1	none
Cc1cc(N)n2nc(-c3ccccc3)cc2n1	KinaseGlo FLuc 12.6µM (no result: GALK inhibitor, RXFP1 antag)
CCOC(=O)CC(NC(=O)CCc1c(C)nc2nc(C)nn2c1C)c1ccc(OC(C)C)cc1 (stereo not drawn)	RXFP1 ag 17.8µM
CCOC(=O)CC(NC(=O)CCc1c(C)nc2c(-c3ccccc3)c(C)nn2c1C)c1ccc(OC(C)C)cc1 (stereo not drawn)	none (no result: GALK inhibitor, RXFP1 antag, PKM2 activator, KinaseGlo FLuc)
COC(=O)C1(C(=O)OC)CC2=CCC3C(=O)N(c4ccccc4)C(=O)C3C2Cc2ccccc2[C@@H]1C[N+](=O)[O-] (stereo partly drawn)	none (no result: miR-21 FLuc, GALK inhibitor, RXFP1 antag, RXFP1 ag, PKM2 activator)
N#CC(C#N)=C1NC(N)=C(C#N)C(c2ccccc2)=C1C#N	RXFP1 ag 28.2µM (no result: RXFP1 antag, PKM2 activator, KinaseGlo FLuc)
N#CC1=C(c2ccccc2)/C(=C/c2ccccc2)OC1=O	none (no result: RXFP1 antag)
CC12CCC(=O)N1C(C(=O)N1CCN(S(=O)(=O)c3ccc(Br)cc3Cl)CC1)CS2 (stereo not drawn)	RXFP1 antag -66.2 (no result: miR-21 FLuc, GALK inhibitor, PKM2 activator, KinaseGlo FLuc)
COC(=O)c1ccc(NS(=O)(=O)c2c(C)nc3sccn3c2=O)cc1	none (no result: GALK inhibitor, PKM2 activator, KinaseGlo FLuc)
Cc1ccc(NS(=O)(=O)c2c(C)nc3sccn3c2=O)cc1C	PKM2 activator 4.47µM (no result: GALK inhibitor, RXFP1 antag, KinaseGlo FLuc)
Cc1nnc(NC(=O)c2nc(S(=O)(=O)Cc3ccccc3)ncc2Cl)s1	miR-21 FLuc inconclusive (no result: PKM2 activator, KinaseGlo FLuc)
